In ChEMBL document CHEMBL4414589, “Development of High-Throughput Fluorescent-Based Screens to Accelerate Discovery of P2X Inhibitors from Animal Venoms” (J Nat Prod, 2019):

Experiments:
P2X purinoceptor 4 [1] = target: T1, P2X purinoceptor 4 (Homo sapiens, UniProt Q99571); test: Antagonist activity at human P2X4R transfected in 1321N1 cells; assay type: cell-based
T1 sequence (Q99571 whole entry): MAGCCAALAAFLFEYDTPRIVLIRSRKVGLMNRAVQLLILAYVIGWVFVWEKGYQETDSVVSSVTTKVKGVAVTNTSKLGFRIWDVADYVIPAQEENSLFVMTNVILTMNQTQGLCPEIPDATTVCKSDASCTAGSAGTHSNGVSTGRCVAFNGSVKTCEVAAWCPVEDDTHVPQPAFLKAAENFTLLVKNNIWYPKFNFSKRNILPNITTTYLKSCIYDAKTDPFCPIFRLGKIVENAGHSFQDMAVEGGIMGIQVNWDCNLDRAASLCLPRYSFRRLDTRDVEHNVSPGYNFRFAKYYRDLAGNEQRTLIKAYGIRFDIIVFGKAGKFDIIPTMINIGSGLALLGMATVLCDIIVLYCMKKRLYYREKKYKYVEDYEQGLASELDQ

P2X purinoceptor 4 [2] = target: T1, P2X purinoceptor 4; test: Antagonist activity at human P2X4R transfected in HEK293 cells; assay type: cell-based

Compound: Cc1ccc(S(=O)(=O)N2c3ccccc3Oc3ccccc32)cc1
- IC50 (P2X purinoceptor 4 [1]): 3300 nM
- IC50 (P2X purinoceptor 4 [2]): 1400 nM
